Assay results taken from ChEMBL document CHEMBL3797120, “Identification of 1,2,3-triazole derivatives that protect pancreatic β cells against endoplasmic reticulum stress-mediated dysfunction and death through the inhibition of C/EBP-homologous protein expression” (Bioorg Med Chem, 2016).

System: INS1
Assay: Cytoprotective activity in endoplasmic reticulum stressed rat INS-1 cells assessed as rescue from tunicamycin-mediated reduction in cell survival after 72 hrs by CellTiter-Glo assay
Assay type: functional, cell-based

Cc1c(C(=O)Nc2cccc(F)c2)nnn1-c1ccc(C(C)C)cc1
Activity: Dose-dependent effect
